# PGC1a acetyl inh: PGC1a acetylation modulation, inhibitor mode. U2OS PGC1a acetylation, AlphaScreen anti-acetyl-lysine; with virally co-expressed GCN5 acetyltransferase. inhibition, % at 15.6 µM. 0.17% of 350,000 active;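 active = every replicate shows inhibition of at least 40%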;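 also: 0% = neutral control wells and 100% = positive control wells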
# E-selectin induc: E-selectin induction on HUVECs; P16581; HUVEC E-selectin immunofluorescence imaging; normalized: neutral wells 0, TNF-alpha wells 100; activation, % at 7.58 µM; 0.37% of 260,000 active;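 active = mean E-selectin-positive cell signal at least 10% of the positive control, reached in at least 60% of replicates, without over 20% cell loss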
#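 Test system – human umbilical vein endothelial cells (HUVEC), E-selectin induction · Input – 3,000 HUVEC seeded per well · Buffer or medium – EGM-2, gelatin · Compound dosing – single-point compound dose · Detection – immunofluorescence imaging · Measure – percent E-selectin-positive cells · Controls – TNF-alpha high, DMSO low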
# UUG fidelity: alters start codon recognition fidelity in yeast. S. cerevisiae UUG-firefly luciferase reporter, luminescence/redox ratio. activity score, % at 18.7 µM. 0.13% of 350,000 active. AID 602363;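 active = replicate mean at a twofold rise or more, about +100% in these data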;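 also: firefly luciferase made from a UUG start codon reports start codon fidelity; reporter light over untreated wells divided by growth signal over untreated wells; some hits fall short of that in this replicate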
# PglD inh: blocks C. jejuni PglD acetyltransferase activity. purified PglD enzyme, DTNB colorimetric CoA detection. inhibition, % at 12.5 µM. 0.098% of 360,000 active. AID 602405; in the data active = inhibition above about 16%, passing the limit was not always enough
# Statin myotox sup: suppressors of simvastatin-induced myotoxicity in C2C12 myotubes | 0.78% of 330,000 active | rescue of ATP level, % at 7.49 µM | ATP luminescence, 48 h; scaled: DMSO 0, geranylgeraniol control 100;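 active = mean ATP rescue above about 67%, or every replicate alone reaching that limit, limit read from the data, passing the limit was not always enough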;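 also: myotubes were challenged with 10 µM simvastatin during compound exposure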
# esBAF inh: blocks esBAF chromatin remodeling in mouse ES cells. Bmi1-luciferase knock-in reporter, 24 h; 100% = twice the neutral-well signal. reporter increase, % at 12.5 µM. 2% of 350,000 active; in the data active = activation above about 40%;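 also: 0% = median of the plate's neutral control wells and 100% = double that signal; a rise in the Bmi1 reporter signal indicates esBAF inhibition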
# PglD confirm: blocks Campylobacter jejuni PglD acetyltransferase activity | AID 743156 | inhibition, % at 20 µM | Purified C. jejuni PglD, DTNB absorbance 412 nm | 320 tested, under 10 active | shares compounds with PglD inh;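 active = mean inhibition across replicates of at least 20% with every single replicate also at 20% or more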;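 also: initial rate of CoA release by acetyl transfer from AcCoA to the UDP-4-amino sugar; 0% = median of neutral control wells and 100% = median of positive control wells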
# * hit, by the source's call; . = no result; ! = not confirmed by another sample. In the library only some 2.8% were active in any assay of this set; here they are far more common.
mol,PGC1a acetyl inh,E-selectin induc,UUG fidelity,PglD inh,Statin myotox sup,esBAF inh,PglD confirm
CCOc1nc(-c2ccccc2)ccc1-c1noc(-c2cccs2)n1,-3,.,-19,21*,-9,0,-9
C[C@@H]1CN([C@@H](C)CO)C(=O)Cc2cc(NC(=O)c3ccncc3)ccc2O[C@H]1CN(C)Cc1ccc(C(=O)O)cc1,2,.,.,.,.,.,.
O=C(C[C@@H]1CC[C@@H]2[C@H](COC[C@@H](O)CN2C(=O)c2ccccn2)O1)N1CCN(c2ccccc2)CC1,-5,0,6,-3,-5,4,.
C[C@H]1CN([C@@H](C)CO)C(=O)c2cc(NS(=O)(=O)c3ccc(Cl)cc3)ccc2O[C@@H]1CN(C)S(C)(=O)=O,-10,-1,-7,.,.,0,.
NC(N)=NN=C1CCC(c2ccccc2)CC1 (stereo not drawn),-8,0,-18,25*,-1,-5,3
CC(=O)NN=C1CCC(c2ccccc2)CC1 (stereo not drawn),56,.,-14,-5,.,.,.
C[C@@H]1CN([C@@H](C)CO)C(=O)Cc2cc(NC(=O)Cc3cn(C)c4ccccc34)ccc2O[C@@H]1CN(C)CC1CC1,-11,1,7,-16,12,4,.
CCCC(=O)c1cc(F)c(N2CCN(CCC#N)CC2)cc1C,.,.,-18,-2,.,1,.
CC(=O)c1ccc(N2CCN(CCC#N)CC2)c(F)c1,-7,.,-10,26*,9,-5,1
Cc1cccc(-n2c(N)cc(=O)[nH]c2=S)c1C,-12,.,60,3,-9,0,.
Nc1cc(=O)[nH]c(=S)n1-c1cccc(C(F)(F)F)c1,-9,.,-7,44*,3,-11,0
O=C(OCC(=O)N1CCC(Cc2ccccc2)CC1)c1ccc(O)cc1,-4,5,-4,24*,3,8,-2
N#Cc1cnn2cc(-c3ncc(C(F)(F)F)cc3Cl)cnc12,3,.,-30,47*,-2,29,-2
O=C(Nc1ccccc1C(=O)N1CCOCC1)C1CC(=O)N(C2CCCC2)C1 (stereo not drawn),3,.,-20,33*,-19,-3,-5
O=C(Nc1ccccc1C(=O)N1CCOCC1)C1CC(=O)N(c2ccc(F)cc2)C1 (stereo not drawn),-5,0,-8,-12,-3,-1,.
O=C(NCCc1ccc(Cl)cc1)C1CCN(S(=O)(=O)c2cccs2)CC1,-41,.,13,21*,-18,1,0
O=C(NCCc1ccccc1)C1CCN(S(=O)(=O)c2cccs2)CC1,-8,.,-32,3,18,-3,.
CC(C)NC(=O)N(C)C[C@H]1Oc2cc(C#Cc3ccc(F)cc3)ccc2S(=O)(=O)N([C@H](C)CO)C[C@H]1C,10,0,9,21*!,2,16,10
CC(C)NC(=O)N(C)C[C@H]1Oc2cc(C#Cc3ccc(F)cc3)ccc2S(=O)(=O)N([C@@H](C)CO)C[C@@H]1C,-8,1,13,0,12,3,.
COc1ccc(CCCNC(=O)C2(C)Cc3c(-c4ccc5c(c4)OCO5)ccnc3O2)cc1 (stereo not drawn),-54,1,-1,22*,-8,6,0
COc1ccc(CCCNC(=O)C2(C)Cc3c(-c4ccc(C(N)=O)cc4)ccnc3O2)cc1 (stereo not drawn),-1,0,37,4,-13,-9,.
Cn1ncc(C(=O)Nc2ccc(OC(F)(F)F)cc2)c1-n1cccc1,.,0,-14,21*,-16,-9,-5
CNS(=O)(=O)c1ccc2c3c(cccc13)C(=O)N2,.,.,-13,3,2,-6,.
CNS(=O)(=O)c1cc(S(=O)(=O)NC)c2cccc3c2c1NC3=O,0,.,-11,77*,-1,-4,1
COCC(=O)N1CC(=O)N2[C@H](CO)[C@H](c3ccc(C#CC(C)C)cc3)[C@@H]2C1,11,0,.,.,.,.,.
COc1ccc(C#Cc2ccc3c(c2)O[C@@H](CN(C)C(=O)CN2CCOCC2)[C@@H](C)CN([C@H](C)CO)S3(=O)=O)cc1,-21,0,.,4,19,7,.
COc1cnc(-c2cccc(C(F)(F)F)c2)c(NC(=O)c2cc3ccccc3s2)n1,-1,1,-5,30*,23,-3,2
O=C(CSCCO)Nc1cccc(C(F)(F)F)c1,-3,.,-22,23*,9,6,-1
COC(=O)c1cc(C)ccc1OCc1ccc([N+](=O)[O-])cc1,.,.,0,23*,5,31,-3
COC(=O)c1ccc(COc2ccc(C)cc2[N+](=O)[O-])o1,14,0,-8,-2,.,.,.
CCOC(=O)CNC(=S)N(Cc1ccccc1)Cc1cccnc1,-7,-1,7,32*,9,1,1
CCOC(=O)c1[nH]c(C)c(C(=O)OCC(=O)N2CCCCC2C)c1C (stereo not drawn),7,.,23,23*,-15,6,-2
CCOC(=O)C1=C(C)NC(C)=C(C(=O)OCC)C1C(=O)OCC(=O)N1CCCCC1C (stereo not drawn),4,.,0,-3,4,-3,.
COc1ccc(S(=O)(=O)N2CCN(C(=O)C3CC3)CC2)cc1Br,.,.,0,42*,4,-1,-4
COc1ccc(S(=O)(=O)N2CCCC2)cc1Br,-2,.,0,-3,6,-7,.
COc1ccc2c3c([nH]c2c1)[C@H](CO)N(C(=O)NC1CCCC1)CC31CCN(C(=O)Nc2cccc(F)c2)CC1,2,0,.,.,.,.,.
Cc1nc2ccccc2n1C(C)c1ccccc1 (stereo not drawn),.,0,-8,-3,-4,2,.
CC(c1ccccc1)n1c(CO)nc2ccccc21 (stereo not drawn),-3,0,-24,67*,3,7,2
FC(F)(F)c1ccncc1-c1nnc(C2CCCCC2)o1,.,.,-3,22*,3,-7,0
CC1(C)C(=O)Nc2ccccc2N1C(=O)CSc1nnc2ccccn12,8,0,-28,35*,.,.,-1
CNC(=O)CCCc1nc(-c2ccccc2Cl)no1,6,.,-17,24*,-10,1,-6
O=C(NCC(F)(F)F)[C@@H]1[C@@H](CO)[C@@H]2Cn3c(ccc(-c4cccnc4)c3=O)[C@H]1N2Cc1ccccc1,.,0,.,-1,-4,3,.
O=C(O)c1cccnc1SC1CC(=O)N(CCc2ccccc2)C1=O (stereo not drawn),-18,.,3,4,-3,-1,.
O=C(O)c1cccnc1SC1CC(=O)N(Cc2ccccc2)C1=O (stereo not drawn),0,.,-18,39*,1,4,2

# Entries of single compounds from above:
# Record of O=C(C[C@@H]1CC[C@@H]2[C@H](COC[C@@H](O)CN2C(=O)c2ccccn2)O1)N1CCN(c2ccccc2)CC1 : PGC1a acetyl inh = -5; E-selectin induc = 0; UUG fidelity = 6; PglD inh = -3; Statin myotox sup = -5; esBAF inh = 4; PglD confirm = .
# Record of COC(=O)c1cc(C)ccc1OCc1ccc([N+](=O)[O-])cc1 : PGC1a acetyl inh = .; E-selectin induc = .; UUG fidelity = 0; PglD inh = 23*; Statin myotox sup = 5; esBAF inh = 31; PglD confirm = -3
# Record of CCOC(=O)c1[nH]c(C)c(C(=O)OCC(=O)N2CCCCC2C)c1C (stereo not drawn) : PGC1a acetyl inh = 7; E-selectin induc = .; UUG fidelity = 23; PglD inh = 23*; Statin myotox sup = -15; esBAF inh = 6; PglD confirm = -2

# Screening data deposited in PubChem by Broad Institute.
